Columns and labels:
[1] = Solubility studies of the activators (saturated solution in isohexane or methylcyclohexane); assay type: physicochemical; conditions: for Solubility limit in i-hexane (mM at 25° C.) / Solubility limit in i-hexane (wt % at 25° C.): isohexane; for Solubility limit in MeCy (mM at 25° C.): methylcyclohexane
Protocol: Solubility Studies of the Activators
Procedure for Solid Activators.
A saturated solution of each of the solid ammonium borate activators was prepared by stirring an excess of the activator with either isohexane or methylcyclohexane solvent for several hours at 25° C. The mixture was then filtered and a known volume of the filtrate was evaporated to dryness in a tared vial. The vial was then weighed to determine the mass of activator that was dissolved in the aliquot. The concentration of the saturated solution is presented in millimoles of activator per liter of solution (mM).
Procedure for Activators that Form Emulsions.
A saturated solution of the activator was prepared by slowly adding the solvent to a pre-weighed amount of the activator. The final volume was determined as the minimum amount of solvent required to convert the emulsion into a homogeneous solution. The concentration of the saturated solution is presented in millimoles of activator per liter of solution (mM). Alternatively, an emulsion of the activator was prepared by adding the solvent to an excess amount of activator. The resulting emulsion was separated from the undissolved solids by decanting the emulsion into a tared vial. Solvent was then added dropwise until the emulsion became homogeneous. The mass of the final solution was measured and then the solvent was evaporated to dryness to obtain the mass of the activator. The concentration of the saturated solution is presented in millimoles of activator per liter of solution (mM).

[2] = as above; assay type: physicochemical; conditions: methylcyclohexane

For “N,N-Dimethylanilinium tetrakis(pentafluorophenyl)borate [DMAH-BF20, reference compound]”, the “Solubility limit in i-hexane (mM at 25° C.)” value [1] was less than 0.1 mM, the “Solubility limit in i-hexane (wt % at 25° C.)” value [1] was less than 0.1 wt % and the “Solubility limit in MeCy (mM at 25° C.)” value [1] was less than 0.1 mM. The “Solubility limit in MeCy (wt % at 25° C.)” value [2] was less than 0.1 wt %.
With “N,N-dimethylanilinium tetrakis(heptafluoronaphthalen-2-yl)borate [DMAH-BF28, reference compound]” the “Solubility limit in i-hexane (mM at 25° C.)” value [1] was less than 0.1 mM, the “Solubility limit in i-hexane (wt % at 25° C.)” value [1] was less than 0.1 wt % and the “Solubility limit in MeCy (mM at 25° C.)” value [1] was less than 0.1 mM. For the same substance, the “Solubility limit in MeCy (wt % at 25° C.)” value [2] was less than 0.1 wt %.
In the case of “Di(hydrogenated tallow)methylamine-BF20 [M2HTH-BF20]”, the “Solubility limit in i-hexane (mM at 25° C.)” value [1] is reported as 9.6 mM, the “Solubility limit in i-hexane (wt % at 25° C.)” value [1] is reported as 1.7 wt % and the “Solubility limit in MeCy (mM at 25° C.)” value [1] is reported as 200 mM. For the same substance, the “Solubility limit in MeCy (wt % at 25° C.)” value [2] was 31 wt %.
In the case of “Di(hydrogenated tallow)methylamine-BF28 [M2HTH-BF28]”, the “Solubility limit in i-hexane (mM at 25° C.)” value [1] is reported as 6.5 mM, the “Solubility limit in i-hexane (wt % at 25° C.)” value [1] is reported as 1.5 wt % and the “Solubility limit in MeCy (mM at 25° C.)” value [1] is reported as 120 mM. The “Solubility limit in MeCy (wt % at 25° C.)” value [2] was 25 wt %.
In the case of “N-methyl-4-nonadecyl-N-octadecylanilinium tetrakis(perfluoronaphthalen-2-yl)borate [NOMAH-BF28]”, the “Solubility limit in i-hexane (mM at 25° C.)” value [1] is reported as greater than 213 mM, the “Solubility limit in i-hexane (wt % at 25° C.)” value [1] is reported as greater than 52 wt % and the “Solubility limit in MeCy (mM at 25° C.)” value [1] is reported as greater than 227 mM. For the same substance, the “Solubility limit in MeCy (wt % at 25° C.)” value [2] was greater than 49 wt %.

Source: patent US11414436B2, “Non-coordinating anion type activators containing cation having large alkyl groups” (ExxonMobil Chemical Patents Inc., priority 2018, dated 2022)
